Laboratory results taken from patent publication US20250270584A1, “Gene editing to provide insect resistance in crops” (The Regents of the University of California, priority 2022, published 2025).

Target: T1, CaM7 (Arabidopsis thaliana, UniProt P59220)
T1 construct: made in house; host or cells: Escherichia coli BL21 (DE3)
Assay: ITC (isothermal titration calorimetry) assay of CBD peptides with 6His-CaM7
Settings: KD of binding to CaM7, ITC, 25° C., mean±SD of 3 biological replicates
Description: ITC was carried out at 25° C. on a MicroCal iTC200 instrument (GE Healthcare). 250 μM of peptides were titrated against 20 μM of 6His-CaM7 proteins (purified by size-exclusion chromatography using Superdex 200 Increase 10/300 GL, GE Healthcare) in the reaction buffer (25 mM HEPES, 100 mM NaCl, pH 7.5) with addition of 1 mM Ca^2+ or 2 mM EGTA. Titrations were performed by an automated sequence of 20 injections spaced at 150-s intervals to ensure complete equilibration, and raw data were analyzed with Origin software (version 7.0) supplied with the instrument.

| SMILES | Kd (Ca2+ chelated by EGTA addition (2 mM)) [µM] | Kd (in the presence of Ca2+ (1 mM)) [µM] |
| --- | --- | --- |
| CSCC[C@H](NC(=O)[C@H](CO)NC(=O)[C@H](CO)NC(=O)[C@H](CO)NC(=O)[C@H](CC(=O)O)NC(=O)[C@H](Cc1c[nH]cn1)NC(=O)[C@H](CC(N)=O)NC(=O)[C@H](CCC(N)=O)NC(=O)[C@H](CCC(N)=O)NC(=O)[C@H](CCC(N)=O)NC(=O)[C@@H](N)CC(=O)O)C(=O)N[C@@H](CCCNC(=N)N)C(=O)N[C@@H](CO)C(=O)N[C@H](C(=O)N[C@@H](CCCNC(=N)N)C(=O)N[C@@H](CC(C)C)C(=O)N[C@@H](CCC(N)=O)C(=O)N[C@@H](CCCNC(=N)N)C(=O)N[C@@H](Cc1ccccc1)C(=O)N[C@@H](CC(C)C)C(=O)N[C@@H](CO)C(=O)N[C@@H](CC(C)C)C(=O)O)[C@@H](C)O [CBD peptide] | 279 ± 20 | 7.58 ± 1.01 |
| CC(C)C[C@H](NC(=O)[C@H](CO)NC(=O)[C@H](CC(C)C)NC(=O)[C@H](Cc1ccccc1)NC(=O)[C@H](CCCNC(=N)N)NC(=O)[C@H](CCC(N)=O)NC(=O)[C@H](CC(C)C)NC(=O)[C@H](CCCNC(=N)N)NC(=O)[C@@H](NC(=O)[C@H](CO)NC(=O)[C@H](CC(=O)O)NC(=O)[C@H](Cc1c[nH]cn1)NC(=O)[C@H](CC(N)=O)NC(=O)[C@H](CCC(N)=O)NC(=O)[C@H](CCC(N)=O)NC(=O)[C@H](CCC(N)=O)NC(=O)[C@@H](N)CC(=O)O)[C@@H](C)O)C(=O)O [mutated CBD peptide] | – | 71.3 ± 14.2 |
